# Reference: PubChem BioAssay AID720535 (National Center for Advancing Translational Sciences (NCATS), 2013)
# The list shows a part of the results, in another mix than the full data. Inconclusive results are not listed. Calls of active or inactive are those of the source. Calls follow the shape of the dose curve; as a rule, active = well fitted inhibition curve with a large enough effect; inconclusive = small, poorly fitted or top-dose-only effect; inactive = flat fitted curve, though single readings scatter.
# Assay: qHTS for Inhibitors of TGF-b: Cytotox Counterscreen for Cherry Picks; also: nearly all actives have a fitted effect of over 70% in size
# Settings: HepG2 CAGA-GFP viability, ATP luminescence, 18 h; cells stimulated with TGF-beta, 500 pg/mL
# Source text: TGF-b is a main component in the TGF-b signaling pathway which plays diverse roles in cellular and development pathways. TGF-b is mediated by transcription factors called "Smads". Although the Smad-dependent pathway is the primary canonical TGF-b signaling mode, TGF-b1 can also activate alternative signaling pathways, including those involving MAPK (ERK, JNK and p38). This interaction may mediate or enhance Smad-dependent responses, or can exert Smad-independent effects. The complexity of this signaling cascade allows the TGF-b superfamily to perform unique, overlapping or redundant functions. […] We aim to identify Smad3-small molecule antagonists using a quantitative high throughput screening (qHTS) approach. […]
# Suspensions of trypsinized HEPG2 CAGA-GFP cells were dispensed into white, tissue culture-treated, solid 1536-well plates at 5uL/well (1000 cells/well final concentration) in DMEM medium supplemented with 1% FBS. […] Two uL of CellTiter Glo (Promega), a luminescence-based viability reagent, was dispensed, followed by a 10 minute room temperature incubation. The plates were then measured on a PerkinElmer ViewLux plate reader for luminescence (clear filter) using a 5 second exposure. The %Activity was determined from the corrected luminescence values. […] Concentration-response curves were fitted to the signals arising from the resulting luminescence. […]
# Potency is read from the fitted curve at half-maximal effect.
row,SMILES,Potency
1,CC1=CC2OC3CC4OC(=O)C=CC=CC(=O)OCCC(C)C(O)C(=O)OCC2(CC1O)C4(C)C31CO1 (stereo unspecified),active: 51.7 nM
